Results published in patent US10577373B2, “TYK2 inhibitors and uses thereof” (Nimbus Lakshmi, Inc., priority 2017, dated 2020).

By UniProt entry, the sequences of proteins in these tests, tags left out. Residues count along the entry.
UniProt P29597, 897-1176 limits assumed: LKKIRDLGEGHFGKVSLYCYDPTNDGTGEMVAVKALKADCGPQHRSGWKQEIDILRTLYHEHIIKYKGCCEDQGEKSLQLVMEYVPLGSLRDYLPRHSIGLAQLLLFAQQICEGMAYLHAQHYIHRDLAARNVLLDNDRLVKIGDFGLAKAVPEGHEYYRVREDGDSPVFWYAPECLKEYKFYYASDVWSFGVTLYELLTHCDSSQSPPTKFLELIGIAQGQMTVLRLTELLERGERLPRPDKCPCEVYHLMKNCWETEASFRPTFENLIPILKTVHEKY
UniProt O60674, 849-1124 limits assumed: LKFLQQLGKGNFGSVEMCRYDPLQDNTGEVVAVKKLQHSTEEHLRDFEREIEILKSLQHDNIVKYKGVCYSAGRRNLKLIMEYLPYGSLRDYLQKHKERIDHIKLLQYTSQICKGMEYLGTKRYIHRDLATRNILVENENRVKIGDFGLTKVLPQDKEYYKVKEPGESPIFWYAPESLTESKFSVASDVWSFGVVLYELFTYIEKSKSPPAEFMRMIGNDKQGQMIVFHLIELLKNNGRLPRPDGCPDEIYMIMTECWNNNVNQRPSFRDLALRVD

How the values were obtained:
[1] = molecular target: Tyk2 kinase domain (JH1) (Homo sapiens (Human), UniProt P29597); experiment: Tyk2 Radioactive Kinase Assay; assay type: biochemical; details: ATP 10 μM
[2] = molecular target: JAK2 kinase domain (JH1) (Homo sapiens (Human), UniProt O60674); experiment: JAK2 Radioactive Kinase Assay; assay type: biochemical; details: ATP 10 μM

Row | Structure (SMILES) | Tyk2 JH1% Inhibition @ 10 μM ([1]; compound at 10 μM) | JAK2 JH1% Inhibition @ 10 μM ([2]; compound at 10 μM) | Tyk2 JH1% Inhibition @ 10 μM ([1]; 10 μM compound) | JAK2 JH1% Inhibition @ 10 μM ([2]; 10 μM compound)
1 | CNc1cc(Nc2cccn([C@@H]3CCCOC3)c2=O)nc2c(C(=O)N[C@H]3CCC[C@H](O)C3)cnn12 | A (percent inhibition at 10 μM lower than 50) | A (percent inhibition at 10 μM lower than 50) |  | 
2 | CNc1cc(Nc2cccn(-c3cncc(C)c3)c2=O)nc2c(C(=O)NC3CC3)cnn12 |  |  | A (percent inhibition at 10 μM lower than 50) | A (percent inhibition at 10 μM lower than 50)
